Reference: publication PMC10191403, “The C-terminal 32-mer fragment of hemoglobin alpha is an amyloidogenic peptide with antimicrobial properties” (Cellular and Molecular Life Sciences: CMLS, 2023)

Key:
HSV-2 = type: cell-based; settings: serial dilutions of peptides added to ELVIS cells, infected 1 h later with HSV-2; lacZ enzyme activity one day post-infection; ±SD; one (inactive) to three (active) experiments in triplicates
[1] = Thioflavin T (ThT) assay of fibril formation; type: physicochemical; settings: formation of ThT positive aggregates

SMILES | IC50 (antiviral activity, HSV-2) (HSV-2) [µg/mL] | ThT signal (+/-) [1]
CC(C)C[C@H](NC(=O)[C@H](Cc1ccccc1)NC(=O)[C@@H](N)CCCCN)C(=O)N[C@@H](C)C(=O)N[C@@H](CO)C(=O)N[C@H](C(=O)N[C@@H](CO)C(=O)N[C@H](C(=O)N[C@H](C(=O)O)C(C)C)[C@@H](C)O)C(C)C [HBA 128-136] | > 130 | -
CC(C)C[C@H](NC(=O)[C@@H](NC(=O)[C@@H](NC(=O)[C@H](CO)NC(=O)[C@@H](NC(=O)[C@H](CO)NC(=O)[C@H](C)NC(=O)[C@H](CC(C)C)NC(=O)[C@@H](N)Cc1ccccc1)C(C)C)[C@@H](C)O)C(C)C)C(=O)O [HBA 129-137] | > 130 | -
